Reference: PubChem BioAssay AID1499 (Sanford-Burnham Center for Chemical Genomics, 2009)
The list shows a part of the results, in another mix than the full data. Calls of active or inactive are those of the source.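 How the source made its calls: active means 10 µM primary screen giving 50% or more activity, confirmed by 40% or more on retest at that dose; inactive means the rest.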

Sequences of proteins named here, by UniProt entry; tags and fusion partners are left off.
UniProt P05107, whole entry, looked up: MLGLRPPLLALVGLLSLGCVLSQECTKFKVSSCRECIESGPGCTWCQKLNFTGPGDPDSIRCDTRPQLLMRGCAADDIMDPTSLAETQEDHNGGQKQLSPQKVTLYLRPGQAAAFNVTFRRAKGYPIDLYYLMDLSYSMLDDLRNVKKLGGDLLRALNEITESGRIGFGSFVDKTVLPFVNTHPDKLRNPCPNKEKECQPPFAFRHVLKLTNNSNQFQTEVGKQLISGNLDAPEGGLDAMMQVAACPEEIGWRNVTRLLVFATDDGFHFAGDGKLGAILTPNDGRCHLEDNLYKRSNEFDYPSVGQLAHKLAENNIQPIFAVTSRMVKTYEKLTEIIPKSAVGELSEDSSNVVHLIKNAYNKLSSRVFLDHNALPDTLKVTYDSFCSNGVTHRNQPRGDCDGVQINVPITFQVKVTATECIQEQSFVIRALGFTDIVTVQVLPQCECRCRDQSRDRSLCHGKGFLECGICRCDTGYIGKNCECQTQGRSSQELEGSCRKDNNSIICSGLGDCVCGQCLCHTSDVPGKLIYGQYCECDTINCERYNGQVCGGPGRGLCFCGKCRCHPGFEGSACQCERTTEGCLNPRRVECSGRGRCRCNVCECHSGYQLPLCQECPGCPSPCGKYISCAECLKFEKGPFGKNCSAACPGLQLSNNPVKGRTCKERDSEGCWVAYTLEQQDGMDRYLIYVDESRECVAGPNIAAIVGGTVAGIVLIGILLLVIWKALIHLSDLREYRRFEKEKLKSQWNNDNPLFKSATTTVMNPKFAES

These compounds were tested against Integrin beta-2 (Homo sapiens) + Integrin alpha-M (Homo sapiens) (UniProt P05107+P11215) (assay: agonists of integrin CD11b/CD18-fibrinogen binding – K562 cells, luminescence, primary screen (AID 1499)). Conditions: K562 CD11b/CD18 adhesion to fibrinogen, ATPlite luminescence; at 10 µM; stronger effect = higher value.

Structure (SMILES) | activation
CCOP1(=S)c2c(C)nn(CCC#N)c2N=C(c2ccccc2F)N1C (stereo unspecified) | inactive: 13.7%
